Experimental water solubility values from OPERA 2.9

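The numbers are reported measurements, compiled and curated for the OPERA QSAR suite. One number stands for a compound and property, with no spread given. How each value was measured is not recorded, so precision varies. A value may pool stereoisomers or salt forms, and the file does not say which form was measured. Some upstream entries may be estimates or bounds without being marked so.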

Water solubility is log10 of mol/L, nominally at 25 °C; higher is more soluble. Cells with "n/a" have no entry in this list.

compound | name | log S (log10 mol/L)
O=[PH]1Oc2ccccc2-c2ccccc21 (stereo unspecified) | 6H-Dibenzo[c,e][1,2]oxaphosphinine 6-oxide | -1.782
O=C(O)C1N=C(c2ccccc2)c2cc(Cl)ccc2NC1=O (stereo unspecified) | Clorazepate | -4.103
CN=C(O)Oc1cccc(Cl)c1 | n/a | -2.29
CCCCC(CC)C(=O)OOC(C)(C)CC(C)(C)C (stereo unspecified) | 2,4,4-Trimethylpentan-2-yl 2-ethylhexaneperoxoate | -5.95
O=S(=O)(O)C(F)(F)C(F)(F)C(F)(F)C(F)(F)C(F)(F)C(F)(F)F | Perfluorohexanesulfonic acid | -3.216
O=c1oc2ccccc2c(O)c1C1CC(c2ccc(-c3ccccc3)cc2)Cc2ccccc21 (stereo unspecified) | Difenacoum | -5.42
COc1ccc(C(C)(C)C)cc1CN[C@H]1C2CCN(CC2)[C@H]1C(c1ccccc1)c1ccccc1 | Maropitant | -4.686
CC(C)(C)C(=O)O[C@H]1CC[C@]2(C)[C@H]3CC[C@]4(C)C(=O)[C@H]5C[C@H]5[C@H]4[C@@H]3[C@@H](O)[C@H]3O[C@]32C1 | n/a | -3.656
CC(=O)OC(c1ccccc1)C(Cl)(Cl)Cl (stereo unspecified) | 2,2,2-Trichloro-1-phenylethyl acetate | -3.852
CCOP(=S)(OCC)SCn1c(=O)oc2ccccc21 | n/a | -5.19
CCN(CCCl)c1ccc(N=Nc2c(Cl)cc([N+](=O)[O-])cc2Cl)c(C)c1 | n/a | -7.749
CCC1(CC)C(=O)NCC(C)C1=O (stereo unspecified) | Methyprylon | -0.382
CC(C)(C)NCC(O)c1cc(Cl)c(N)c(Cl)c1 (stereo unspecified) | Clenbuterol | -3.39
CC(C)OC(=O)C(O)(c1ccc(Cl)cc1)c1ccc(Cl)cc1 | Chloropropylate | -4.53
O=C(NC(=O)c1c(F)cccc1F)Nc1cc(Cl)c(OC(F)(F)C(F)C(F)(F)F)cc1Cl (stereo unspecified) | Lufenuron | -6.991
CC(C(=O)O)N(C(=O)c1ccccc1)c1ccc(F)c(Cl)c1 (stereo unspecified) | Flamprop | -4.25
C[C@]12C[C@@H](O)[C@H]3[C@@H](CCC4=CC(=O)CC[C@@H]43)[C@@H]1CCC2=O | 11alpha-Hydroxy-estr-4-ene-3,17-dione | -2.561
CNC(=O)Oc1cccc2c1OC(C)(C)O2 | Bendiocarb | -2.916
CC(C)COP(=S)(OCC(C)C)SCC(C)C(=O)O (stereo unspecified) | n/a | -4.624
CC(C)COP(=O)(OCC(C)C)OCC(C)C | Triisobutyl phosphate | -3.004
Cc1cc(Cc2cc(C)c(N)c(C)c2)cc(C)c1N | 4,4'-Methylenebis(2,6-xylidine) | -3.974
Clc1ccccc1C(Cl)(Cl)Cl | Benzene, 1-chloro-2-(trichloromethyl)- | -5.044
FC(F)C(F)(F)OCC(F)(F)F | (1H,1H-Perfluoroethyl)(2H-perfluoroethyl)ether | -3.26
O=C(O)C(Cl)(Cl)CCl | Chloropon | -1.75
Cc1c(C(=O)c2cnn(C)c2O)ccc(S(C)(=O)=O)c1C1=NOCC1 | Topramezone | -0.561
Cc1cc(C(F)(C(F)(F)F)C(F)(F)F)ccc1NC(=O)c1cccc(I)c1C(=O)NC(C)(C)CS(C)(=O)=O | Flubendiamide | -7.37
Oc1cc(Cl)c(Cl)c(Cl)c1 | 3,4,5-Trichlorophenol | -3.489
CC(=O)OC1N=C(c2ccccc2Cl)c2cc(Cl)ccc2N=C1O (stereo unspecified) | n/a | -5.029
Clc1ccc(Oc2ccc(Cl)c(Cl)c2)cc1Cl | n/a | -6.98
C[C@]12CC[C@H]3[C@@H](CCC4=CC(=O)CC[C@@H]43)[C@@H]1CCC2=O | 19-Norandrostenedione | -3.155
CCOP(=O)(NC(C)C)Oc1ccc(S(C)(=O)=O)c(C)c1 (stereo unspecified) | Fenamiphos sulfone | -2.73
Clc1cc(Cl)c(Cl)c(-c2cc(Cl)cc(Cl)c2Cl)c1 | 2,2',3,3',5,5'-Hexachlorobiphenyl | -6.96
O=c1[nH]c2ccccc2c(=O)o1 | 2H-3,1-Benzoxazine-2,4(1H)-dione | -2.735
CC(C)=CC1C(C(=O)OC(C#N)c2cccc(Oc3ccccc3)c2)C1(C)C (stereo unspecified) | Cyphenothrin | -7.57
CC[C@@H](C(=O)O)[C@@H]1O[C@@H]([C@@H](C)[C@H](O)[C@H](C)C(=O)[C@H](CC)[C@H]2O[C@]3(C=C[C@@H](O)[C@]4(CC[C@@](C)([C@H]5CC[C@](O)(CC)[C@H](C)O5)O4)O3)[C@H](C)C[C@@H]2C)[C@@H](C)C[C@@H]1C | Narasin | -3.879
CC(Cl)S(=O)(=O)Cl (stereo unspecified) | 1-Chloroethane-1-sulfonyl chloride | -1.367
C=CCl | Vinyl chloride | -1.105
CCCCC(CC)CO[N+](=O)[O-] (stereo unspecified) | 2-Ethylhexyl nitrate | -4.147
C[C@@H]1C[C@@]2(C)[C@@H](CC[C@@H]3[C@@H]2CC[C@]2(C)[C@@H](O)CC[C@@H]32)CC1=O | Dromostanolone | -4.702
CN1CN(Cc2ccccc2)CN(Cc2cnc(Cl)s2)/C1=N/[N+](=O)[O-] | n/a | -3.539
O=C(O)C(F)(F)C(F)(F)C(F)(F)C(F)(F)C(F)(F)C(F)(F)C(F)(F)C(F)(F)C(F)(F)C(F)(F)F | Perfluoroundecanoic acid | -3.787
C=CCC1(C(C)C#CCC)C(=O)NC(=O)N(C)C1=O (stereo unspecified) | Methohexital | -3.699
C=C(C)C(=O)OCCCCOC(=O)C(=C)C | Butane-1,4-diyl bis(2-methylprop-2-enoate) | -2.969
FC(F)OCC(F)(F)F | Difluoromethyl 2,2,2-trifluoroethyl ether | -2.135
c1ccc2nc3ccc4ccccc4c3cc2c1 | Benz[a]acridine | -5.81
c1cnc2c(c1)ccc1ncccc12 | n/a | -2.68
O=C1c2ccccc2C(=O)N1SC1CCCCC1 | N-(Cyclohexylthio)phthalimide | -4.354

A selection of 7 entries from above:

| compound | name | log S (log10 mol/L) |
|---|---|---|
| CC(C)(C)C(=O)O[C@H]1CC[C@]2(C)[C@H]3CC[C@]4(C)C(=O)[C@H]5C[C@H]5[C@H]4[C@@H]3[C@@H](O)[C@H]3O[C@]32C1 | n/a | -3.656 |
| O=C(O)C1N=C(c2ccccc2)c2cc(Cl)ccc2NC1=O (stereo unspecified) | Clorazepate | -4.103 |
| CC[C@@H](C(=O)O)[C@@H]1O[C@@H]([C@@H](C)[C@H](O)[C@H](C)C(=O)[C@H](CC)[C@H]2O[C@]3(C=C[C@@H](O)[C@]4(CC[C@@](C)([C@H]5CC[C@](O)(CC)[C@H](C)O5)O4)O3)[C@H](C)C[C@@H]2C)[C@@H](C)C[C@@H]1C | Narasin | -3.879 |
| O=c1[nH]c2ccccc2c(=O)o1 | 2H-3,1-Benzoxazine-2,4(1H)-dione | -2.735 |
| CC(Cl)S(=O)(=O)Cl (stereo unspecified) | 1-Chloroethane-1-sulfonyl chloride | -1.367 |
| Oc1cc(Cl)c(Cl)c(Cl)c1 | 3,4,5-Trichlorophenol | -3.489 |
| O=S(=O)(O)C(F)(F)C(F)(F)C(F)(F)C(F)(F)C(F)(F)C(F)(F)F | Perfluorohexanesulfonic acid | -3.216 |

Values as listed in the OPERA 2.9 repository of K. Mansouri.